Measurements published in ChEMBL document CHEMBL4382214, “Antileishmanial activity of new hybrid tetrahydroquinoline and quinoline derivatives with phosphorus substituents” (Eur J Med Chem, 2019).
Activity calls are given as the source filed them. No cut-off for these calls is given here.

target: T1, DNA topoisomerase 1 (Homo sapiens) (UniProt P11387); test: Inhibition of human Top1B expressed in Top1B deficient Saccharomyces cerevisiae EKY3 assessed as decrease in relaxation of supercoiled pSK DNA preincubated for 15 mins followed by DNA addition and measured after 2 to 16 mins by agarose gel electrophoresis
T1 sequence (whole entry): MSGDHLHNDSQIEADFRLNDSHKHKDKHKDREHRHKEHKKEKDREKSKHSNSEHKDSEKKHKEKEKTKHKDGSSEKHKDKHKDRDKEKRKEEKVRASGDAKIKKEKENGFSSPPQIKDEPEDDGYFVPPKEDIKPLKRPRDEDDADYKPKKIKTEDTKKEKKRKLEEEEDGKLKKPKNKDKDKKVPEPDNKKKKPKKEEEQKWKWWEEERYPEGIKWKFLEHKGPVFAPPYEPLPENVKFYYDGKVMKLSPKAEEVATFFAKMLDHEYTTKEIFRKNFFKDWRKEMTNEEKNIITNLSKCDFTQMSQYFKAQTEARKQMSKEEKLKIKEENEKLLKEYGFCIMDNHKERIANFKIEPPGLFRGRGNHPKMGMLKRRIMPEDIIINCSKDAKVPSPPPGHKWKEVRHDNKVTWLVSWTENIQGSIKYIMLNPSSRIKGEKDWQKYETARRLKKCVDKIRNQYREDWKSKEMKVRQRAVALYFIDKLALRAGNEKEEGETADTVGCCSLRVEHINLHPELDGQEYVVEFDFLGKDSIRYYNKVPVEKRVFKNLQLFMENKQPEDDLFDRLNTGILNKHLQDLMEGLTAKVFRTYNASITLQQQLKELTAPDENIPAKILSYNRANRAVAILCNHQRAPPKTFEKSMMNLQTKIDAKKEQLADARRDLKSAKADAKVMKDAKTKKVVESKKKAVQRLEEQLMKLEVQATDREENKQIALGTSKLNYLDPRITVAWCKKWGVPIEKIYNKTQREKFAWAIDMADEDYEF

SMILES	inhibition
Fc1ccc(-c2cc(-c3ccc(F)cc3)c3cccc(P(=S)(c4ccccc4)c4ccccc4)c3n2)cc1	inactive
O=P(c1ccccc1)(c1ccccc1)c1cccc2c(-c3ccc(F)cc3)cc(-c3ccccc3)nc12	inactive
O=P(c1ccccc1)(c1ccccc1)c1cccc2c(-c3ccccc3)cc(-c3ccc4ccccc4c3)nc12	inactive
COc1ccccc1[C@@H]1C[C@H](c2ccccc2)c2cccc(P(=O)(c3ccccc3)c3ccccc3)c2N1 (relative stereo)	inactive
O=[N+]([O-])c1ccc([C@@H]2C[C@H](c3ccccc3)c3cccc(P(=S)(c4ccccc4)c4ccccc4)c3N2)cc1 (relative stereo)	inactive
O=P(c1ccccc1)(c1ccccc1)c1cccc2c1N[C@H](c1ccc(F)c(F)c1)C[C@@H]2c1ccc(F)cc1 (relative stereo)	inactive
Cc1ccc([C@H]2C[C@@H](c3ccc(F)cc3)Nc3c2cccc3P(=O)(c2ccccc2)c2ccccc2)cc1 (relative stereo)	inactive

target: T1, DNA topoisomerase 1 (Homo sapiens); test: Inhibition of human Top1B expressed in Top1B deficient Saccharomyces cerevisiae EKY3 assessed as decrease in relaxation of supercoiled pSK DNA preincubated for 15 mins followed by DNA addition and measured after 2 to 4 mins by agarose gel electrophoresis

SMILES	inhibition
COc1ccc([C@@H]2C[C@H](c3ccccc3)c3cccc(P(=S)(c4ccccc4)c4ccccc4)c3N2)cc1 (relative stereo)	Active

target: T1, DNA topoisomerase 1 (Homo sapiens); test: Inhibition of human Top1B expressed in Top1B deficient Saccharomyces cerevisiae EKY3 assessed as decrease in relaxation of supercoiled pSK DNA preincubated for 15 mins followed by DNA addition and measured after 8 to 16 mins by agarose gel electrophoresis

SMILES	inhibition
COc1ccc([C@@H]2C[C@H](c3ccccc3)c3cccc(P(=S)(c4ccccc4)c4ccccc4)c3N2)cc1 (relative stereo)	inactive
